Results from BindingDB's records for doi:10.1124/mol.61.2.415 (University of Ferrara, 2002).
Several values for one entry are separate records, joined by “and”; a condition that tells them apart may be missing. Equal values may be shown once.

Protein sequences, listed by entry. Tags and fused reporters are not part of them.
UniProt P0DMS8, whole entry: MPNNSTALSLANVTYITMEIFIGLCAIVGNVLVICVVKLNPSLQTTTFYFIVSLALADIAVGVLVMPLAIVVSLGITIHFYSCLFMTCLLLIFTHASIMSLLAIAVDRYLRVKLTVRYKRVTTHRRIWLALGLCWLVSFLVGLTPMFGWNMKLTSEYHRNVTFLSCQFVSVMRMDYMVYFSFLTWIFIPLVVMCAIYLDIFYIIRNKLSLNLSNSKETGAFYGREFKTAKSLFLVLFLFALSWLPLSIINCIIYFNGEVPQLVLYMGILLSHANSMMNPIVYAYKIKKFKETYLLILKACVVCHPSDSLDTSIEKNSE

Target: Adenosine receptor A3 (Homo sapiens, UniProt P0DMS8)

CCCn1cc2c(nc(NC(=O)Nc3ccc(OC)cc3)n3nc(-c4ccco4)nc23)n1 [J1.251.181G]
Ki: 2.3 nM and 2 nM

CC(Cc1ccccc1)Nc1ncnc2c1ncn2C1OC(CO)C(O)C1O (configuration not stated) [R-N6-(2-phenylisopropyl) adenosine]
Ki: 2600 nM and 2300 nM and > 10000 nM
